This is an account of results in PubChem BioAssay AID1224863 (Southern Research Institute, 2016).

The chains behind the UniProt entries cited, without tags or fusion partners. A line that says so, or that is headed by a name, gives the form on record, which may keep a tag or linker.
UniProt P13569, with tags, fused parts or gaps F508del: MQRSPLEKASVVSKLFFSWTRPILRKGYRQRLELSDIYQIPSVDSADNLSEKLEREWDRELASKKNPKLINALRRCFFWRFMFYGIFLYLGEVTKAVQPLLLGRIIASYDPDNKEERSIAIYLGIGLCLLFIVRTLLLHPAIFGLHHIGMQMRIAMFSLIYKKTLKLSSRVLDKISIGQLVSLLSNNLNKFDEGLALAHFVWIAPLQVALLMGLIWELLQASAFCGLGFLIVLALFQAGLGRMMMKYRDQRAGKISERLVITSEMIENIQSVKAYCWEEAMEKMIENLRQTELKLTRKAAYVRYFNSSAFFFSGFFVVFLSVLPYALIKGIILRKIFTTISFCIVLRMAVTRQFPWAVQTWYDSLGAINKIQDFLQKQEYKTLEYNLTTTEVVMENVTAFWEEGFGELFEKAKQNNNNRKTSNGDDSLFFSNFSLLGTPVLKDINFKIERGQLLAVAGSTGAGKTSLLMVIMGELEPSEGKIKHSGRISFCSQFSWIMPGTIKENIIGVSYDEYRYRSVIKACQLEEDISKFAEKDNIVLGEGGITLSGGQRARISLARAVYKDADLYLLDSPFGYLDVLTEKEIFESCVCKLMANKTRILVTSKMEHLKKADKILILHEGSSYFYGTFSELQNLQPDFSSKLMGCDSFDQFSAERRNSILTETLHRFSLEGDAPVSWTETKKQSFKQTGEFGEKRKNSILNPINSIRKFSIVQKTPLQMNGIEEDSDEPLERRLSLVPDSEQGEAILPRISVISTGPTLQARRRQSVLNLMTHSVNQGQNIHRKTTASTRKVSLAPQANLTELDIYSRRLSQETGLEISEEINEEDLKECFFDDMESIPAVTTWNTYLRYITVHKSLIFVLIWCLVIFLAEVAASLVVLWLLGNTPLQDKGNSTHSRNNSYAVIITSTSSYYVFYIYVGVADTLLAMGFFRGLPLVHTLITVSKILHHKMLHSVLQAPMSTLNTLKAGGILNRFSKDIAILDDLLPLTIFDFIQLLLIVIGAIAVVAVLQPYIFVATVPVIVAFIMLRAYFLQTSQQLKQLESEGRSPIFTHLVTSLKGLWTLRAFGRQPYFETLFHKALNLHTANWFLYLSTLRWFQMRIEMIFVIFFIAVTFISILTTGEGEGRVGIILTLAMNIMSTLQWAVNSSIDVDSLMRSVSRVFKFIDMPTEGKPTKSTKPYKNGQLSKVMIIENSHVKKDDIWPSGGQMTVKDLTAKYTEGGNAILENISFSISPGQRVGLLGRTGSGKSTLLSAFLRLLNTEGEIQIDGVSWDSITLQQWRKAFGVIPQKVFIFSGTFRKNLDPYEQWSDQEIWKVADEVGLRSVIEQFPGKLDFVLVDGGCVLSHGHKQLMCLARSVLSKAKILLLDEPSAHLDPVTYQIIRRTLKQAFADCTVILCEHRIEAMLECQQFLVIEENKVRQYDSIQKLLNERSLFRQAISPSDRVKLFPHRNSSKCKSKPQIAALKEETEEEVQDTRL

The nature of test [1]: total CFTR protein upregulators, primary screen, cell-based, HeLa F508del-CFTR, immunofluorescence, viability (AID 1224863).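 For fold increase: total CFTR protein by anti-CFTR immunofluorescence in fixed cells.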 Conditions: 24 h, stronger effect = higher value; min viability: measured here: HeLa viability, alamarBlue, dose 20, library dosed in µg/mL unless noted; viability: measured here: primary viability 10 ug/mL, library dosed in µg/mL unless noted.
Test [2] deals with Cystic fibrosis transmembrane conductance regulator (Homo sapiens) (UniProt P13569). Described as above. Conditions: 24 h; fold increase: measured here: primary screen 10 ug/mL, library dosed in µg/mL, stronger effect = higher value unless noted; max fold increase: dose 10, library dosed in µg/mL, stronger effect = higher value unless noted; outcome: library dosed in µg/mL unless noted.

Out of some 10,000 compounds screened, about 15 (0.1%) were called active.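 Rule for the calls: active = highest signal at least 8 times the median of untreated cell-only control wells at some dose; inactive = the rest.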 A selection follows.

For `COCCn1c(SCC(=O)c2[nH]c(C)c(C(C)=O)c2C)nc2sc3c(c2c1=O)CCCC3`, in test [1], the viability (usually a read-out of living cells in per cent, often relative to untreated cells) turned out to be 102%. For the same compound, in test [2], the fold increase is 1.01 and the result was inactive.
Consider `CCCn1c(N)c(C(=O)CN2CCC(O)CC2)c(=O)[nH]c1=O`, for which, in test [1], the viability worked out at 91%. In test [2], the fold increase came out at 1.07 and the compound was called inactive.
In the case of `COC(=O)c1ccc(C2NC(=O)NC(C)=C2C(=O)c2ccc(Cl)cc2)cc1` (configuration not stated), the viability in test [1] came to 87%. For the same compound, in test [2], the fold increase is 1.02 and the result was inactive.
Take `N#CCCN1CCN(C(=O)C23CC4CC(CC(C4)C2)C3)CC1`: the viability in test [1] came out at 86%. Further, in test [2], the fold increase was 1.05 and the call was inactive.
In the case of `Cc1nn(Cc2ccccc2Cl)c(C)c1CN(C)c1ccc2nnnn2n1`, the viability in test [1] stood at 101%. Besides, in test [2], the fold increase turned out to be 0.94 and the outcome was inactive.
For the compound `O=C1c2ccccc2S(=O)(=O)NN1Cc1ccc(Br)cc1`, the viability in test [1] is 110%. In test [2], the fold increase was 0.99 and the result was inactive.
For the compound `Cc1ccc(-c2nnc(NCCC(C)C)c3ccccc23)cc1C`, in test [1], the viability amounted to 97%. For the same compound, in test [2], the fold increase was found to be 0.94 and the compound was called inactive.
Taken in the same sequence, the figures for `CSc1ncccc1C(=O)NC1CC2CC1C1CCCC21` (configuration not stated) were 103%, 1.14 and “inactive”.
As to `C=CCNC(=O)NC(=O)CN(Cc1nccn1C(F)F)C1CC1`, the viability in test [1] is 83%. Besides, in test [2], the fold increase was found to be 1.18 and the outcome was inactive.
For `C=CCn1c(SCC)nnc1-c1ccc([N+](=O)[O-])cc1`, the viability in test [1] is 88%. For the same compound, in test [2], the fold increase came out at 1.02 and the call was inactive.
For `CC(OC(=O)C1=Cc2ccccc2OC1)C(=O)C12CC3CC(CC(C3)C1)C2` (configuration not stated) the same measures were 91%, 1.1 and “inactive”.
Take `O=C1C2CCCCC2C(=O)N1CC(O)COCc1ccc2c(c1)OCO2` (configuration not stated): the viability in test [1] amounted to 99%. In addition, in test [2], the fold increase was 1.1 and the call was inactive.
As to `C=CCNCC(F)(F)F`, the viability in test [1] is 95%. Also, in test [2], the fold increase was 1.07 and the compound was classed as inactive.
Regarding `O=S(=O)(C1=Cc2ccccc2CC1)N1CCCC1c1ccc(F)cc1` (configuration not stated), the viability in test [1] amounted to 97%. In test [2], the fold increase is 0.99 and the compound was called inactive.
With `CCCN(CC1CC1)C(=O)CSc1nc(C)nc2sc3c(c12)CCCC3`, in test [1], the viability came to 81%. In addition, in test [2], the fold increase stood at 0.94 and the result was inactive.
For `CC1CCCN(S(=O)(=O)N2CCC(N3CCCc4ccccc43)CC2)C1` (configuration not stated) the same measures were 82%, 0.89 and “inactive”.
Turning to `O=C(C1CCCO1)N1CCN(Cc2ccc3c(c2)CCO3)CC1` (configuration not stated), the viability in test [1] came out at 90%. In test [2], the fold increase worked out at 1.05 and the outcome was inactive.
Turning to `O=c1oc2ccc([N+](=O)[O-])cc2n1CN1CCN(c2cccc(Cl)c2)CC1`, the viability in test [1] worked out at 82%. In addition, in test [2], the fold increase is 0.77 and the call was inactive.
As to `Cc1ccc(C2(C)NC(=O)N(Cc3coc(-c4ccc(C)cc4C)n3)C2=O)cc1` (configuration not stated), the viability in test [1] worked out at 85%. Besides, in test [2], the fold increase is 0.96 and the compound was called inactive.
As for `O=S(=O)(Nc1cc2c(cc1Br)OCCO2)c1ccc(Br)cc1`, the viability in test [1] came out at 88%. Besides, in test [2], the fold increase turned out to be 1.03 and the call was inactive.
For `Cc1cc(C)n2c(SCc3cc(-c4ccccc4)on3)nnc2n1`, the viability in test [1] came to 97%. Further, in test [2], the fold increase was found to be 1.06 and the outcome was inactive.
For the compound `CCCCS(=O)(=O)Nc1ccc(F)c(N)c1`, in test [1], the viability stood at 102%. Besides, in test [2], the fold increase was 0.96 and the result was inactive.
In the case of `O=C(CNC(=O)c1ccco1)NC1CCC2CCCCC2C1` (configuration not stated), in test [1], the viability was found to be 75%. In test [2], the fold increase came out at 1.02 and the call was inactive.
For the compound `Cc1cc(C(=O)CSc2nnc(-c3ccoc3C)o2)c(C)s1`, the viability in test [1] is 84%. Further, in test [2], the fold increase was found to be 0.89 and the result was inactive.
In the case of `O=C(CSc1nnnn1C1CC1)NC(c1cccs1)C1CCCC1` (configuration not stated), the viability in test [1] came to 90%. Also, in test [2], the fold increase is 0.94 and the result was inactive.
For the compound `CCOC(=O)c1oc2ccccc2c1COC(=O)c1ccc2c(c1)CCC(=O)N2`, the viability in test [1] came to 81%. Further, in test [2], the fold increase was 1 and the result was inactive.
Taken in the same sequence, the figures for `CCn1cnnc1SCCCCN1C(=O)c2ccccc2C1=O` were 106%, 1.03 and “inactive”.
For the compound `CC(=O)N1C=Cc2ccccc2C1CC(=O)Nc1cc2c(cc1Cl)OCO2` (configuration not stated), the viability in test [1] was 89%. Moreover, in test [2], the fold increase is 0.97 and the result was inactive.
As to `O=S(=O)(Cc1ccc(F)cc1Cl)C12CC3CC(CC(C3)C1)C2`, in test [1], the viability worked out at 104%. For the same compound, in test [2], the fold increase amounted to 1.1 and the result was inactive.
For the compound `CCOCCCNc1nnc(SC(C(=O)NC(N)=O)C(C)C)s1` (configuration not stated), the viability in test [1] amounted to 97%. In test [2], the fold increase turned out to be 0.95 and the compound was classed as inactive.
For `Cc1nc(CNC(C(=O)O)C(C)C)cs1` (configuration not stated), in test [1], the viability was determined as 88%. For the same compound, in test [2], the fold increase is 1.06 and the call was inactive.
Turning to `CC(C)Cn1nnc(-c2ccc(Cl)cc2)n1`, the viability in test [1] stood at 99%. For the same compound, in test [2], the fold increase worked out at 1.4 and the compound was called inactive.
As for `O=C(O)c1cc(C2CC2)nc2onc(-c3ccco3)c12`, the viability in test [1] was 109%. For the same compound, in test [2], the fold increase was 1.11 and the compound was called inactive.
For `N#Cc1nc2c(S(=O)(=O)c3ccc(Cl)cc3)c(N)n(Cc3ccc(C(F)(F)F)cc3)c2nc1C#N`, the viability in test [1] came out at 87%. In test [2], the fold increase amounted to 0.86 and the compound was classed as inactive.
For the compound `Cc1cc(C)n2c(=S)n(CN(C)Cc3ccccc3Cl)nc2n1`, the viability in test [1] came to 97%. Besides, in test [2], the fold increase came to 0.97 and the compound was called inactive.
For `CC(NCC(O)c1ccccc1)c1ccccc1` (configuration not stated) the same measures were 103%, 1.06 and “inactive”.
For the compound `CC(Cc1ccc(Cl)cc1)NC(=O)C1(C)CC1(Cl)Cl` (configuration not stated), in test [1], the viability is 94%. For the same compound, in test [2], the fold increase was found to be 0.98 and the compound was called inactive.
In the case of `COc1ccc2c(COC(=O)c3ccc4c(c3)S(=O)(=O)N=C3CCCCCN34)cc(=O)oc2c1`, in test [1], the viability turned out to be 83%. Further, in test [2], the fold increase stood at 1.02 and the compound was classed as inactive.
As to `CCc1c(C)sc2nc(SCCO)n(CCOC)c(=O)c12`, the viability in test [1] is 95%. Moreover, in test [2], the fold increase turned out to be 1 and the compound was classed as inactive.
